# Results taken from US10906910B2, “Substituted bicyclic pyrimidine compounds with tubulin and multiple receptor inhibition” (Duquesne University of the Holy Spirit, priority 2014, dated 2021).
# Tested on: tubulin (colchicine site)
# Assay: inhibition of [3H]colchicine binding to tubulin
# Parameters: species or system bovine
# Conditions: in % (unit assumed)
smiles,measurement,value
"COc1ccc(/C=C\c2cc(OC)c(OC)c(OC)c2)cc1O [combretastatin A-4, reference compound]",inhibition of colchicine binding (5 μM inhibitor),98 ± 0.3
